Molecular target: T1, human calcium receptor (Homo sapiens, UniProt P41180)
T1 construct: expressed in transfected cells; host or cells: Xenopus laevis oocytes injected with cRNA
T1 sequence (P41180 20-1078): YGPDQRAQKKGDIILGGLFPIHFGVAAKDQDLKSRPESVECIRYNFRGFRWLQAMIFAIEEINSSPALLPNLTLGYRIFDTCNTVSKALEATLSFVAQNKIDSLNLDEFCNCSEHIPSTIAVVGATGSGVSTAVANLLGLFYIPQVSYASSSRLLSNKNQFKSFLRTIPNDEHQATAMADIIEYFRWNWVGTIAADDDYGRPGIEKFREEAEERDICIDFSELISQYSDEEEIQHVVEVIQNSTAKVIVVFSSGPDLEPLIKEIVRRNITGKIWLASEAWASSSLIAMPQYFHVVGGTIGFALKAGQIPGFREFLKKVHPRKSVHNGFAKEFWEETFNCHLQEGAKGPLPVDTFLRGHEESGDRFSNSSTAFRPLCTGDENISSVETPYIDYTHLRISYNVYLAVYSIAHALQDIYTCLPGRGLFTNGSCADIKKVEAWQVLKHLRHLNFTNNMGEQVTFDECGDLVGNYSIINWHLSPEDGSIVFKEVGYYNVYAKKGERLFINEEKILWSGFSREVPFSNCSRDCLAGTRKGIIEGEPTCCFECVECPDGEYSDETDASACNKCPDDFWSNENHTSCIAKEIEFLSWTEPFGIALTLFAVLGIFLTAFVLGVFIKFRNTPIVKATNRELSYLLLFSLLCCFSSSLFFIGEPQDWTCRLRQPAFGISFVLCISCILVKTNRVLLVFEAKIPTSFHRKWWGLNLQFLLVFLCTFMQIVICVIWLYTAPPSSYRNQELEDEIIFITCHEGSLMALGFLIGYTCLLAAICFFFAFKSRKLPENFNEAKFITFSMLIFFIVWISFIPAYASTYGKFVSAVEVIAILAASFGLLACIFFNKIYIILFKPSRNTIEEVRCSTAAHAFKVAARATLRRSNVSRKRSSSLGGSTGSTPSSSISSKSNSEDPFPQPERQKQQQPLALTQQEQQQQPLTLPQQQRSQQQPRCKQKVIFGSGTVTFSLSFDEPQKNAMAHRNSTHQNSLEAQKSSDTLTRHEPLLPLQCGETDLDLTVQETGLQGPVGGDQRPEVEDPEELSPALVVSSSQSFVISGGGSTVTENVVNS
Assay: Ca ion concentration-dependent Cl ionic current measurement in Xenopus laevis oocytes expressing the calcium receptor
Type: cell-based
Method: For evaluation of the calcium receptor-activating action, a Ca ion concentration-dependent Cl ionic current measuring method using a Xenopus laevis oocyte expression system was used. If each activator is added to Xenopus laevis oocytes expressing the calcium receptor, intracellular Ca ions increase. Then, the Ca ion concentration-dependent Cl channel opens, and the intracellular current value changes as an ionic current. By measuring the change in the intracellular current value, whether the calcium receptor-activating action is present or not can be determined.
Specifically, the abdomen of Xenopus laevis was opened, and an egg batch was taken out and then treated with a 1% collagenase solution at 20° C. for 2 hours to obtain individual oocytes. Into the oocytes, 50 nl of 1 μg/μl receptor cRNA or 50 nl of sterilized water per oocyte were injected by using a micro glass capillary, and the oocytes were cultured at 18° C. for 2 to 3 days. For the culture, a solution obtained by adding 2 mM pyruvic acid, 10 U/ml penicillin, and 10 μg/ml streptomycin to the solution in Example 2 was used. After the culture, a test solution was added to the oocytes injected with cRNA or sterilized water. Electrophysiological measurement was performed by using an amplifier Geneclamp 500 (manufactured by Axon) and recording software AxoScope 9.0 (manufactured by Axon). The oocytes were membrane potential-clamped at −70 mV by the double electrode potential clamp method, and the intracellular current was measured via the Ca ion concentration-dependent Cl ion channel. The maximum value of the intracellular current was defined as the response current value. […]
The calcium receptor-activating action of L-amino acids was evaluated by using the method described in Example 13. That is, oocytes injected with cRNA of the calcium receptor or sterilized water were prepared, and membrane potential-clamped at −70 mV by the double electrode potential clamp method. To the potential-clamped oocytes, alanine (10 mM), arginine (10 mM), asparagine (10 mM), aspartic acid (10 mM), cysteine (10 mM), glutamine (10 mM), glutamic acid (10 mM), glycine (10 mM), histidine (10 mM), isoleucine (10 mM), leucine (10 mM), lysine (10 mM), methionine (10 mM), phenylalanine (10 mM), proline (10 mM), serine (10 mM), threonine (10 mM), tryptophan (10 mM), tyrosine (10 mM), valine (10 mM), ornithine (10 mM), taurine (10 mM), or hydroxyproline (10 mM) was added, and Ca ion concentration-dependent Cl response current was measured. […] As for the above-described amino acids, the activating action is reported in Proc. Natl. Acad. Sci. USA, Apr. 25, 2000, 97(9): 4814-9.
The calcium receptor-activating action of D-cysteine was evaluated by using the method described in Example 13. That is, oocytes injected with cRNA of the calcium receptor or sterilized water were prepared, and membrane potential-clamped at −70 mV by the double electrode potential clamp method. To the potential-clamped oocytes, D-cysteine (10 mM), L-cysteine (10 mM), D-tryptophan (10 mM), or L-tryptophan (10 mM) was added, and Ca ion concentration-dependent Cl response current was measured.
The calcium receptor-activating action of a peptide was evaluated by using the method described in Example 13. That is, oocytes injected with cRNA of the calcium receptor or sterilized water were prepared, and membrane potential-clamped at −70 mV by the double electrode potential clamp method.

Row | Substance | calcium receptor-activating action (Ca ion concentration-dependent Cl response current) (peptide added at 50 μM) | calcium receptor-activating action (Ca ion concentration-dependent Cl response current) (peptide added at 500 μM)
1 | γ-Glu-Ala (EA) | definite calcium receptor-activating action | –
2 | γ-Glu-Gly (EG) | – | definite calcium receptor-activating action
3 | γ-Glu-Met (EM) | – | definite calcium receptor-activating action
4 | γ-Glu-Thr (ET) | definite calcium receptor-activating action | –
5 | γ-Glu-Val (EV) | definite calcium receptor-activating action | –

— US20100105864A1, “PROPHYLACTIC OR THERAPEUTIC AGENT FOR DIARRHEA” (priority 2007, published 2010)
